SMILES strings stand for the structures.

Amino acid sequences for entries named in this document (tags omitted).
UniProt P04049, whole entry Y340E/Y341E: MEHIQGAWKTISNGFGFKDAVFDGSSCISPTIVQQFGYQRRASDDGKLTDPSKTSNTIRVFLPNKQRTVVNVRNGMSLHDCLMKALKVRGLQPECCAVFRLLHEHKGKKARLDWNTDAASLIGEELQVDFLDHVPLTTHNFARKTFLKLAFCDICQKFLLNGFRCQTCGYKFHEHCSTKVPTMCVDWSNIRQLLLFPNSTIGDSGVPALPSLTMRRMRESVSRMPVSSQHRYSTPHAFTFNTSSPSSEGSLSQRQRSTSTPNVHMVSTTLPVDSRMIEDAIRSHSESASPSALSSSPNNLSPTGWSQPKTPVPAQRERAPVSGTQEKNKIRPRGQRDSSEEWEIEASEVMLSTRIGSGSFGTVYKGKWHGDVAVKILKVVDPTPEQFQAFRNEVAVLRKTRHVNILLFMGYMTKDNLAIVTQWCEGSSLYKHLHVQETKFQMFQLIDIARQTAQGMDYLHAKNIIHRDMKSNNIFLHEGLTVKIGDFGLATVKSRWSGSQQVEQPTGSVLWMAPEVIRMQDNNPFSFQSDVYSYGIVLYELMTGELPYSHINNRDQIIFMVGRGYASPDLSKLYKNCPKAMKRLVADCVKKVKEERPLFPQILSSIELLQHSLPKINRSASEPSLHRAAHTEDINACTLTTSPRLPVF

One assay addresses C-Raf FL (full-length C-Raf protein, Y340E and Y341E activating mutations) (Homo sapiens (Human), UniProt P04049, Y340E/Y341E). It counts as biochemical. The settings on record: AlphaScreen, 60 min pre-incubation, 1 hour reaction; read-out: c-Raf FL IC-50.
Take `Cc1ccc(NC(=O)c2ccnc(C(C)(C)C#N)c2)cc1-c1cc(N2CCOCC2)c2nccn2n1` [Example 844, 2-(2-cyanopropan-2-yl)-N-(4-methyl-3-(8-morpholinoimidazo[1,2-b]pyridazin-6-yl)phenyl)isonicotinamide]: the IC50 amounted to 0.2 nM.

Consider `CCOc1nnc(-c2cc(NC(=O)c3ccc(CO)c(C(F)(F)F)c3)cnc2C)cc1N1CCOCC1` [Example 627, N-(5-(6-ethoxy-5-morpholinopyridazin-3-yl)-6-methylpyridin-3-yl)-4-(hydroxymethyl)-3-(trifluoromethyl)benzamide], for which the IC50 was 1.1 nM.

As to `Cc1ncc(NC(=O)c2ccnc(C(C)(C)C#N)c2)cc1-c1cc(N2CCOCC2)nc(NC[C@H](C)O)n1` [Example 738, (S)-2-(2-cyanopropan-2-yl)-N-(5-(2-((2-hydroxypropyl)amino)-6-morpholinopyrimidin-4-yl)-6-methylpyridin-3-yl)isonicotinamide], the IC50 is 10.7 nM.

In the case of `Cc1ncc(NC(=O)c2ccnc(S(C)(=O)=O)c2)cc1-c1cc(N2CCOCC2)n(C)c(=O)c1` [Example 504, N-(1′,2-dimethyl-6′-morpholino-2′-oxo-1′,2′-dihydro-[3,4′-bipyridin]-5-yl)-2-(methylsulfonyl)isonicotinamide], the IC50 came out at 5.3 nM.

Regarding `CCOc1nnc(-c2cc(NC(=O)c3ccnc(C4(C#N)CC4)c3)ccc2C)cc1N1CCOCC1` [Example 568, 2-(1-cyanocyclopropyl)-N-(3-(6-ethoxy-5-morpholinopyridazin-3-yl)-4-methylphenyl)isonicotinamide], the IC50 stood at 0.2 nM.

Consider `COc1nnc(-c2cc(NC(=O)c3ccnc(C(C)(F)F)c3)cnc2C)cc1N1CCOCC1` [Example 603, 2-(1,1-difluoroethyl)-N-(5-(6-methoxy-5-morpholinopyridazin-3-yl)-6-methylpyridin-3-yl)isonicotinamide], for which the IC50 was 0.9 nM.

Take `Cc1ccc(NC(=O)c2cc(CN(C)C)cc(C(F)(F)F)c2)cc1-c1cc(N2CCOCC2)c(=O)n(C)n1` [Example 661, 3-((dimethylamino)methyl)-N-(4-methyl-3-(1-methyl-5-morpholino-6-oxo-1,6-dihydropyridazin-3-yl)phenyl)-5-(trifluoromethyl)benzamide]: the IC50 came to 0.9 nM.

In the case of `CCOc1nnc(-c2cc(NC(=O)c3cnnc(C(C)(C)C#N)c3)ccc2C)cc1N1CCOCC1` [Example 567, 6-(2-cyanopropan-2-yl)-N-(3-(6-ethoxy-5-morpholinopyridazin-3-yl)-4-methylphenyl)pyridazine-4-carboxamide], the IC50 came out at 0.8 nM.

Consider `Cc1ccc(NC(=O)c2cccc(C(F)(F)F)c2)cc1-c1nc(N2CCOCC2)c2occc2n1` [Example 838, N-(4-methyl-3-(4-morpholinofuro[3,2-d]pyrimidin-2-yl)phenyl)-3-(trifluoromethyl)benzamide], for which the IC50 was found to be 0.3 nM.

Take `Cc1ncc(NC(=O)c2cccc(C(F)(F)F)c2)cc1-c1cc(N2CCOCC2)nc(NC2CNC2)n1` [Example 787, N-(5-(2-(azetidin-3-ylamino)-6-morpholinopyrimidin-4-yl)-6-methylpyridin-3-yl)-3-(trifluoromethyl)benzamide]: the IC50 stood at 1.7 nM.

On to `Cc1ccc(NC(=O)c2ccc(C(O)CO)c(C(F)(F)F)c2)cc1-c1cc(N2CCOCC2)c(=O)n(C)c1` (stereo not shown) [Example 460, 4-(1,2-dihydroxyethyl)-N-(4-methyl-3-(1-methyl-5-morpholino-6-oxo-1,6-dihydropyridin-3-yl)phenyl)-3-(trifluoromethyl)benzamide], for which the IC50 was 3.1 nM.

With `Cc1ncc(NC(=O)c2ccnc(C(C)(C)F)c2)cc1-c1cc(N2CCOCC2)c(=O)n(C)n1` [Example 677, 2-(2-fluoropropan-2-yl)-N-(6-methyl-5-(1-methyl-5-morpholino-6-oxo-1,6-dihydropyridazin-3-yl)pyridin-3-yl)isonicotinamide], the IC50 stood at 4.6 nM.

Regarding `Cc1ncc(NC(=O)c2ccnc(C(C)(C)C#N)c2)cc1-c1cc(N2CCOCC2)nc(N2CC(O)C2)n1` [Example 767, 2-(2-cyanopropan-2-yl)-N-(5-(2-(3-hydroxyazetidin-1-yl)-6-morpholinopyrimidin-4-yl)-6-methylpyridin-3-yl)isonicotinamide], the IC50 stood at 12.1 nM.

The same assay, now with this note: AlphaScreen, 60 min pre-incubation, reaction 1 hour at room temperature; read-out: c-Raf FL IC-50.
On to `Cc1ncc(NC(=O)c2cnnc(C(F)(F)F)c2)cc1-c1cc(NCCO)nc(N2CCOCC2)c1` [Example 1051, N-(2′-((2-hydroxyethyl)amino)-2-methyl-6′-morpholino-[3,4′-bipyridin]-5-yl)-6-(trifluoromethyl)pyridazine-4-carboxamide], for which the IC50 is 1.04 nM.

For the compound `Cc1ncc(NC(=O)c2ccnc(C(C)(C)O)c2)cc1-c1cnc(OC(C)C)c(N2CCOCC2)c1` [Example 955, 2-(2-hydroxypropan-2-yl)-N-(6′-isopropoxy-2-methyl-5′-morpholino-[3,3′-bipyridin]-5-yl)isonicotinamide], the IC50 came out at 8.01 nM.

`COc1nnc(-c2cc(C(=O)Nc3ccnc(C(F)(F)F)c3)ccc2C)cc1N1CCOCC1` [Example 1017, 3-(6-methoxy-5-morpholinopyridazin-3-yl)-4-methyl-N-(2-(trifluoromethyl)pyridin-4-yl)benzamide]: the IC50 turned out to be 0.35 nM.

With `Cc1ncc(NC(=O)c2ccnc(C(C)(C)C#N)c2)cc1-c1cc(N2CCOCC2)nc(N2CCOCC2)c1` [Example 1123, 2-(2-cyanopropan-2-yl)-N-(2-methyl-2′,6′-dimorpholino-[3,4′-bipyridin]-5-yl)isonicotinamide], the IC50 turned out to be 1.34 nM.

With `Cc1ncc(NC(=O)c2ccnc(C(C)(C)F)c2)cc1-c1cc(NCCO)nc(N2CCOCC2)c1` [Example 1056, 2-(2-fluoropropan-2-yl)-N-(2′-((2-hydroxyethyl)amino)-2-methyl-6′-morpholino-[3,4′-bipyridin]-5-yl)isonicotinamide], the IC50 amounted to 2.19 nM.

Consider `Cc1ccc(NC(=O)c2cccc(C(F)F)c2)cc1-c1cc(N2CCOCC2)nc(N2CC(O)C2)c1` [Example 1077, 3-(difluoromethyl)-N-(3-(2-(3-hydroxyazetidin-1-yl)-6-morpholinopyridin-4-yl)-4-methylphenyl)benzamide], for which the IC50 was found to be 0.46 nM.

Turning to `Cc1ccc(NC(=O)c2ccnc(C(C)(C)O)c2)cc1-c1cc(N2CCOCC2)c(S(C)(=O)=O)nn1` [Example 932, 2-(2-hydroxypropan-2-yl)-N-(4-methyl-3-(6-(methylsulfonyl)-5-morpholinopyridazin-3-yl)phenyl)isonicotinamide], the IC50 amounted to 1.83 nM.

Turning to `Cc1ncc(NC(=O)c2cnnc(C3CC3)c2)cc1-c1cc(NCCO)nc(N2CCOCC2)c1` [Example 1052, 6-cyclopropyl-N-(2′-((2-hydroxyethyl)amino)-2-methyl-6′-morpholino-[3,4′-bipyridin]-5-yl)pyridazine-4-carboxamide], the IC50 amounted to 1.48 nM.

Turning to `Cc1ncc(NC(=O)c2cc(C(F)(F)F)ccn2)cc1-c1cc(N2CCOCC2)c(OCC(F)F)nn1` [Example 916, N-(5-(6-(2,2-difluoroethoxy)-5-morpholinopyridazin-3-yl)-6-methylpyridin-3-yl)-4-(trifluoromethyl)picolinamide], the IC50 worked out at 0.39 nM.

Take `Cc1ccc(NC(=O)c2cnnc(C3(C#N)CC3)c2)cc1-c1cc(N2CCOCC2)n(C)c(=O)c1` [Example 899, 6-(1-cyanocyclopropyl)-N-(4-methyl-3-(1-methyl-6-morpholino-2-oxo-1,2-dihydropyridin-4-yl)phenyl)pyridazine-4-carboxamide]: the IC50 came out at 0.48 nM.

The same assay, now with this note: Table 2; AlphaScreen, 1 hour reaction; read-out: c-Raf FL IC-50.
On to `Cc1ncc(NC(=O)c2cnnc(C(C)(C)C#N)c2)cc1-c1cnc(Cl)c(N2CCOCC2)c1` [Example 293, N-(6′-chloro-2-methyl-5′-morpholino-[3,3′-bipyridin]-5-yl)-6-(2-cyanopropan-2-yl)pyridazine-4-carboxamide], for which the IC50 came to 6.6 nM.

Take `Cc1ncc(NC(=O)c2ccnc(C(C)C)c2)cc1-c1cc(N2CCOCC2)c(=O)n(C)c1` [Example 400, N-(1′,2-dimethyl-5′-morpholino-6′-oxo-1′,6′-dihydro-[3,3′-bipyridin]-5-yl)-2-isopropylisonicotinamide]: the IC50 is 3.3 nM.

Turning to `CCOc1ncc(-c2cc(NC(=O)c3ccnc(C(C)(F)F)c3)ccc2C)cc1N1CCOCC1` [Example 233, 2-(1,1-difluoroethyl)-N-(3-(6-ethoxy-5-morpholinopyridin-3-yl)-4-methylphenyl)isonicotinamide], the IC50 is 0.2 nM.

On to `Cc1ccc(NC(=O)c2ccnc(C(C)(F)F)c2)cc1-c1cc(N2CCOCC2)c(=O)n(CCC#N)c1` [Example 334, N-(3-(1-(2-cyanoethyl)-5-morpholino-6-oxo-1,6-dihydropyridin-3-yl)-4-methylphenyl)-2-(1,1-difluoroethyl)isonicotinamide], for which the IC50 amounted to 0.7 nM.

In the case of `COc1ncc(-c2cc(NC(=O)c3ccnc(C4(C#N)CC4)c3)cnc2Cl)cc1N1CCOCC1` [Example 260, N-(2-chloro-6′-methoxy-5′-morpholino-[3,3′-bipyridin]-5-yl)-2-(1-cyanocyclopropyl)isonicotinamide], the IC50 amounted to 0.8 nM.

As to `Cc1ccc(NC(=O)c2cccc(C(F)F)c2)cc1-c1cc(N2CCOCC2)c(=O)n(C)n1` [Example 190, 3-(difluoromethyl)-N-(4-methyl-3-(1-methyl-5-morpholino-6-oxo-1,6-dihydropyridazin-3-yl)phenyl)benzamide], the IC50 is 0.3 nM.

`Cc1ccc(NC(=O)c2cnnc(C(C)(C)F)c2)cc1-c1cc(N2CCOCC2)c(=O)n(C)c1` [Example 363, 6-(2-fluoropropan-2-yl)-N-(4-methyl-3-(1-methyl-5-morpholino-6-oxo-1,6-dihydropyridin-3-yl)phenyl)pyridazine-4-carboxamide]: the IC50 came to 0.8 nM.

The same assay, now with this note: read-out: c-Raf FL IC-50.
Regarding `Cc1ncc(NC(=O)c2cccc(C(F)(F)F)c2)cc1-c1cc(N2CCOCC2)c(OC2CCOCC2)nn1` [Example 636, N-(6-methyl-5-(5-morpholino-6-((tetrahydro-2H-pyran-4-yl)oxy)pyridazin-3-yl)pyridin-3-yl)-3-(trifluoromethyl)benzamide], the IC50 stood at 0.4 nM.

The values above are taken from patent publication US9694016B2 (Novartis AG, priority 2013, dated 2017).
